Assay [1] has as its target recombinant human MMP-13 (Homo sapiens, UniProt P45452). The assay can be described thus: In vitro metalloprotease inhibition, fluorogenic peptide assay (MMP-13). The note with it: read-out: MMP-13 IC50 (nanomolar); recombinant human MMP-13, APMA activated; fluorogenic MCA peptide substrate 4 uM; pH 7.5, room temperature. The method, then: (§1) Certain of the compounds prepared in the manner described in Examples 1 to 223 were tested for activity by an in vitro assay. Following the procedures of Knight et al., FEBS Lett. 296(3):263 (1992). Briefly, 4-aminophenylmercuric acetate (APMA) or trypsin activated MMPs were incubated with various concentrations of the inhibitor compound at room temperature for 5 minutes (0.02% 2-mercapto-ethanol added to buffer for thiol compounds with 5 minutes or overnight incubation). More specifically, recombinant human MMP-13 and MMP-1 enzymes were prepared in laboratories of the inventors' employer. MMP-13 was expressed in baculovirus as a proenzyme, and purified first over a heparin agarose column and then over a chelating zinc chloride column. The proenzyme was activated by APMA for use in the assay. MMP-1 expressed in transfected HT-1080 was provided by Dr. Howard Welgus of Washington University, St. Louis, Mo. The enzyme was also activated using APMA and was then purified over a hydroxamic acid column.
(§2) The enzyme substrate is a methoxycoumarin-containing polypeptide having the following sequence:
(§3) MCA-ProLeuGlyLeuDpaAlaArgNH^2, wherein MCA is methoxycoumarin and Dpa is 3-(2,4-dinitrophenyl)-L-2,3-diaminopropionyl alanine. This substrate is commercially available from Baychem as product M-1895.
(§4) The buffer used for assays contained 100 mM Tris-HCl, 100 mM NaCl, 10 mM CaCl2 and 0.05 percent polyethyleneglycol(23) lauryl ether at a pH value of 7.5. Assays were carried out at room temperature, and dimethyl sulfoxide (DMSO) at a final concentration of 1 percent was used to dissolve inhibitor compound.
(§5) The assayed inhibitor compound in DMSO/buffer solution was compared to an equal amount of DMSO/buffer with no inhibitor as control using microfluor™ white plates (Dynatech). The inhibitor or control solution was maintained in the plate for 10 minutes and the substrate was added to provide a final concentration of 4 uM.
(§6) In the absence of inhibitor activity, a fluorogenic peptide is cleaved at the gly-leu peptide bond, separating the highly fluorogenic peptide from a 2.4-dinitrophenyl quencher, resulting in an increase of fluorescence intensity (excitation at 328 nm/emmision at 415 nm). Inhibition was measured as a reduction in fluorescent intensity as a function of inhibitor concentration, using a Perkin Elmer L550 plate reader. The IC50 values were calculated from those values. The results are set forth in the Inhibition Table below, reported in terms of IC50 to three significant figures.

Sequences of proteins named here, by UniProt entry; tags and fusion partners are left off. Residues count along the entry.
UniProt P03956, 100-469 limits assumed: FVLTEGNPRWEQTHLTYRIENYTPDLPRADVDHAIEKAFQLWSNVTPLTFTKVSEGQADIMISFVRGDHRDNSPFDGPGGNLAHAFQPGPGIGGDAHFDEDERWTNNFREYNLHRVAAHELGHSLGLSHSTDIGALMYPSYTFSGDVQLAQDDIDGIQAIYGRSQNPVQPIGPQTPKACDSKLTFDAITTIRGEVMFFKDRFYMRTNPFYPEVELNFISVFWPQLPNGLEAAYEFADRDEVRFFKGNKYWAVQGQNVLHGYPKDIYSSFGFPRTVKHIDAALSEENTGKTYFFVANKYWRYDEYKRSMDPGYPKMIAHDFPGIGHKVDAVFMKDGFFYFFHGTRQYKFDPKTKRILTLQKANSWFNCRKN

Assay [2] addresses recombinant human MMP-1 (Homo sapiens, UniProt P03956). The assay is described as follows: In vitro metalloprotease inhibition, fluorogenic peptide assay (MMP-1). Particulars: read-out: MMP-1 IC50 (nanomolar); recombinant human MMP-1, APMA activated; fluorogenic MCA peptide substrate 4 uM; pH 7.5, room temperature. The method, then: as §1, §2, §3, §4, §5, §6

In general, IC50 refers to the point on the concentration scale where inhibition reaches its midpoint.

On to `CCCCOc1ccc(S(=O)(=O)N(C)[C@@H](CS)C(=O)O)cc1`, for which the IC50 was 0.3 nM in assay [1] and 500 nM in assay [2]. For `CC(=O)SC[C@@H](C)N(CC(=O)OC(C)(C)C)S(=O)(=O)c1ccc(Sc2ccccc2)cc1`, the IC50 in assay [1] is over 10000 nM. Take `CC(=O)SC[C@@H](C)N(CCN1CCOCC1)S(=O)(=O)c1ccc(Sc2ccccc2)cc1`: the IC50 was 0.6 nM in assay [1] and over 10000 nM in assay [2].

Turning to `CCCCOc1ccc(S(=O)(=O)N(CC(=O)O)[C@@H](CS)C(=O)O)cc1`, the IC50 is 40 nM in assay [1] and over 10000 nM in assay [2].

As for `CC(=O)SC[C@@H](C)N(CC(=O)O)S(=O)(=O)c1ccc(Sc2ccccc2)cc1`, the IC50 in assay [1] is over 10000 nM. Consider `COc1ccc(S(=O)(=O)N(CCSC(C)=O)Cc2ccccc2)cc1`, for which the IC50 in assay [1] and in assay [2] was over 10000 nM throughout.

(Values after US6747027B1, “Thiol sulfonamide metalloprotease inhibitors” (Pharmacia Corporation, priority 1996, dated 2004).)
